The record followed here is patent US8735584B2 (Merck Patent GmbH, priority 2008, dated 2014).

The chains behind the UniProt entries cited, without tags or fusion partners.
UniProt O14965, whole entry: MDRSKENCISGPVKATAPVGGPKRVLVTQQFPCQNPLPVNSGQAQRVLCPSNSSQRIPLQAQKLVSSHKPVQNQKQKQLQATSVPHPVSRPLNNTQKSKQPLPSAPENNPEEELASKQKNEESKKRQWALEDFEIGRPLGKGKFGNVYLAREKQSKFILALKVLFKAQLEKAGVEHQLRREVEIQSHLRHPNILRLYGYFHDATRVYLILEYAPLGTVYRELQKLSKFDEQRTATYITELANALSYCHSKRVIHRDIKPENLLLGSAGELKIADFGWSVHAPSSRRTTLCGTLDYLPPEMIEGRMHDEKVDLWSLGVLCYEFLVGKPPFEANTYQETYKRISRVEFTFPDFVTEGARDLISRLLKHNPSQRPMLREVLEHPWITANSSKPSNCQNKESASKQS

The term IC50 denotes the concentration that gives 50% inhibition.

This assay addresses GST-Aurora A (Homo sapiens, UniProt O14965). Description: Aurora A IC50, Caliper LC3000 mobility shift assay. The conditions noted are these: read-out: Aurora Kinase A Activity (IC50); LC3000 method; 15 uM ATP (the KM value).

On to `CN(C)CCNC(=O)c1ccc2c(=O)[nH]c3nccc(Nc4ccn(CC(=O)Nc5cccc(F)c5)n4)c3c2c1`, for which the half-maximal inhibitory concentration (IC50) was over 0.1 µM.
